ChEMBL document CHEMBL5385896, “Discovery of PIM-1 kinase inhibitors based on the 2,5-disubstituted 1,3,4-oxadiazole scaffold against prostate cancer: Design, synthesis, in vitro and in vivo cytotoxicity investigation” (Eur J Med Chem, 2023)

Protein sequences, listed by entry. Tags and fused reporters are not part of them.
UniProt P11309, whole entry: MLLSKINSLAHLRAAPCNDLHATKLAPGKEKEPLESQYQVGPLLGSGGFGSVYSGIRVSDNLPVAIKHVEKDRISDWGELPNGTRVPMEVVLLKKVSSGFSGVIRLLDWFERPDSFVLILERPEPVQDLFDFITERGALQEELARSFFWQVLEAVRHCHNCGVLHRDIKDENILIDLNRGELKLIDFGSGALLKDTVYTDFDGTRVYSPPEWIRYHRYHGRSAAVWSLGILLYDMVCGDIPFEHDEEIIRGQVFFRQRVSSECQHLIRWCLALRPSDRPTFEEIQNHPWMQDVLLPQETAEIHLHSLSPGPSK

Target: Serine/threonine-protein kinase pim-1 (Homo sapiens, UniProt P11309)
Assay: Inhibition of PIM-1 (unknown origin)

O=c1c(O)c(-c2ccc(O)c(O)c2)oc2cc(O)c(O)c(O)c12 [QUERCETAGETIN]
IC50: 320 µM
